The values below come from paper PMC4106271 (Journal of Medicinal Chemistry, 2014).

Protein sequences, listed by entry. Tags and fused reporters are not part of them. Residues count along the entry.
UniProt P14867, 28-456: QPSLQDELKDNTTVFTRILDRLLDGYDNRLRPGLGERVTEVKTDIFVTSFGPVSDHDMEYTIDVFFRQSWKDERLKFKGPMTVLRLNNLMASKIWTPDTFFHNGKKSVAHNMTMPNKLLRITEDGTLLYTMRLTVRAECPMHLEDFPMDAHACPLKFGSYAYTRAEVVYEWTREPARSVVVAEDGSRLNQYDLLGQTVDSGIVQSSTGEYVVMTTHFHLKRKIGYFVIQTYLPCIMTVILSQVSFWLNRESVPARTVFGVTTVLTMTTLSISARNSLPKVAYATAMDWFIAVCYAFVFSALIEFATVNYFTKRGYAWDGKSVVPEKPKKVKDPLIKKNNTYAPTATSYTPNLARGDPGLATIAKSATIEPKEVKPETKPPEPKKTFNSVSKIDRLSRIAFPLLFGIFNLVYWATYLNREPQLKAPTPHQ
UniProt P47870, 26-512: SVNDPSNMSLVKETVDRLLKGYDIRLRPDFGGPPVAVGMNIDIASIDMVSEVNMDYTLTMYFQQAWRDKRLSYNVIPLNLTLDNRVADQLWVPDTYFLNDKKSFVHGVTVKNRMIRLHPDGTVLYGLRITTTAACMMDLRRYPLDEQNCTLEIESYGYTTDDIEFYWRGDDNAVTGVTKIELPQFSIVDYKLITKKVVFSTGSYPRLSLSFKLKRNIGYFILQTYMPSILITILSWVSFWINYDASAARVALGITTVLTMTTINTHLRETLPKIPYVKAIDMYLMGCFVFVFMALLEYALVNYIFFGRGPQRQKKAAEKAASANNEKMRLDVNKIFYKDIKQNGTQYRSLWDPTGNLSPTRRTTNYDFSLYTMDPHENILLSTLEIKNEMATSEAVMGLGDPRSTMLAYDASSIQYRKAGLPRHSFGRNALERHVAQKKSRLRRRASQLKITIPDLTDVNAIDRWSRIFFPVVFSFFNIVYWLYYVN

This assay addresses T1, α1β2γ2S GABAA receptors (Homo sapiens, UniProt P14867+P47870).
T1 construct: expressed in transfected cells; host or cells: Xenopus laevis oocytes injected with cRNA (pCMV cDNA templates)
The assay can be described thus: Two-microelectrode voltage clamp, IGABA modulation, α1β2γ2S. Type of assay: cell-based. The settings on record: mean ± SEM; for IGABA-max (%) / Emax: maximal IGABA enhancement, GABA EC3–7, Xenopus oocytes; for Emax: read-out: IGABA-max (%); for activation at 100 µM: 100 μM compound, GABA EC3–7, Xenopus laevis oocytes. The procedure:
Preparation of stage V–VI oocytes from X. laevis and synthesis of capped runoff poly(A) cRNA transcripts from linearized cDNA templates (pCMV vector) was performed as previously described.[49] Female X. laevis frogs (Nasco) were anesthetized by 15 min incubation in a 0.2% MS-222 (methanesulfonate salt of 3-aminobenzoic acid ethyl ester; Sigma–Aldrich, Vienna, Austria) solution before removal of parts of the ovaries. Follicle membranes from isolated oocytes were enzymatically digested with 2 mg/mL collagenase (type 1A, Sigma–Aldrich, Vienna, Austria).
Selected oocytes were injected with 10–50 nL of DEPC-treated water (diethyl pyrocarbonate, Sigma, Vienna, Austria) containing the different GABAA cRNAs at a concentration of approximately 300–3000 pg·nL^–1·subunit^–1.
To ensure expression of the γ2S subunit in the case of α1/2/3/5β2/3γ2S receptors, cRNAs were mixed in a ratio of 1:1:10. For expression of receptors composed of α4β2γ2S and α1β1γ2S, cRNAS were mixed in a ratio of 3:1:10. The amount of cRNAs was determined by means of a NanoDrop ND-1000 (Kisker-Biotech, Steinfurt, Germany).
Oocytes were stored at +18 °C in modified ND96 solution (90 mM NaCl, 1 mM CaCl2, 1 mM KCl, 1 mM MgCl2·6H2O, and 5 mM HEPES [4-(2-hydroxyethyl)-1-piperazineethanesulfonic acid], pH 7.4, all from Sigma–Aldrich, Vienna, Austria).
Chloride currents through GABAA receptors (IGABA) were measured at room temperature (+21 ± 1 °C) by means of a two-microelectrode voltage clamp technique making use of a Turbo TEC-05X amplifier (npi electronic, Tamm, Germany). IGABA were elicited at a holding potential of –70 mV. Data acquisition was carried out by means of an Axon Digidata 1322A interface using pCLAMP v.10 (Molecular Devices, Sunnyvale, CA). The modified ND96 solution was used as bath solution. Microelectrodes were filled with 2 M KCl and had resistances between 1 and 3 MΩ.
GABA and the studied derivatives were applied by means of the ScreeningTool (npi electronic, Tamm, Germany) fast perfusion system as described previously.[50] To elicit IGABA, the chamber was perfused with 120 μL of GABA- or compound-containing solution at a volume rate of 300 μL/s.[34] Care was taken to account for possible slow recovery from increasing levels of desensitization in the presence of high drug concentrations. The duration of washout periods was therefore extended from 1.5 min (<10 μM compounds) to 30 min (≥10 μM compounds). Oocytes with maximal current amplitudes >3 μA were discarded to exclude voltage clamp errors.
Stimulation of chloride currents by modulators of the GABAA receptor was measured at a GABA concentration eliciting between 3% and 7% of the maximal current amplitude (EC3–7). The GABA EC3–7 was determined for each oocyte individually. Enhancement of the chloride current was defined as (IGABA+compd/IGABA) – 1, where IGABA+compd is the current response in the presence of a given compound and IGABA is the control GABA current. IGABA-max reflects the maximal IGABA enhancement. Concentration–response curves were generated and the data were fitted by nonlinear regression analysis using Origin Software (OriginLab Corp.). Data were fitted to the equation 1/(1 + (EC50/[compound])^nH), where nH is the Hill coefficient. Each data point represents the mean ± SEM from at least three oocytes and ≥2 oocyte batches. Statistical significance was calculated by paired Student t-test with a confidence interval of <0.05.

For the compound `CCCN(CCC)C(=O)c1cccc2cc3c(cc12)OCO3` [Compound 72], the “IGABA-max (%)” value is 706 ± 58 % and the Emax stood at 706%.

For `CCCCN(CCCC)C(=O)c1ccc2cc3c(cc2c1)OCO3` [Compound 77], the activation at 100 µM turned out to be 138 ± 29%.

`O=C(/C=C/C=C/c1ccc2c(c1)OCO2)N1CCCC(C(F)(F)F)C1` (centres unmarked) [Compound 39] yielded an activation at 100 µM of 183 ± 20%.

In turn, `C[C@@H]1CCC[C@H](C)N1C(=O)/C=C/C=C/c1ccc2c(c1)OCO2` [Compound 38] had an activation at 100 µM of 218 ± 43%.

With `CCCN(CCC)C(=O)c1ccc(-c2ccc3c(c2)OCO3)cc1` [Compound 47], the activation at 100 µM is 364 ± 55%, the “IGABA-max (%)” value was determined as 603 ± 87 % and the Emax came out at 603%.

As for `CC(C)N(C(=O)c1cccc(-c2ccc3c(c2)OCO3)c1)C(C)C` [Compound 53], the activation at 100 µM came to 298 ± 31% and the Emax came to 388 ± 64%.

In the case of `CC1CCCCN1C(=O)/C=C/C=C/c1ccc2c(c1)OCO2` (centres unmarked) [Compound 33], the activation at 100 µM was 359 ± 50%.

Compound `O=C(/C=C/C=C/c1ccc2c(c1)OCO2)N1CCSCC1` [Compound 30] yielded an activation at 100 µM of 113 ± 17%.

In turn, `CCCN(CCC)C(=O)c1ccc(-c2ccc3c(c2)OCO3)s1` [Compound 59] gave an activation at 100 µM of 134 ± 39%.

Turning to `CCCCN(CCCC)C(=O)c1cccc2cc3c(cc12)OCO3` [Compound 73], the activation at 100 µM worked out at 514 ± 76%, the “IGABA-max (%)” value worked out at 480 ± 85% and the Emax came to 480%.

For `CC(C)N(C(=O)/C=C/C=C/c1ccc2c(c1)OCO2)C(C)C` [Compound 22], the activation at 100 µM came out at 986 ± 244%.
